# Laboratory results: patent US20090047278A1, “Novel Combinational Use of Sulfonamide Compound” (Eisai R & D Management Co., Ltd., priority 2005, published 2009)
# Experiments:
# [1] = tested on: human colon cancer cell line (WiDr); assay: E7820 and cetuximab in subcutaneous transplant model of WiDr; type: in vivo; details: WiDr s.c. in nude mouse; E7820 oral 50 mg/kg twice a day, cetuximab i.p. 100 mg/kg twice a week, 2 weeks; Day 1 = first administration
# Experimental: (§1) Human colon cancer cell line WiDr (obtained from Dainippon Pharmaceutical) was cultured in RPMI1640 (containing 10% FBS) in a 5% carbon dioxide incubator at 37° C. to about 80% confluence, and the cells were collected with trypsin-EDTA. Using a phosphate buffer, 5×10^7 cells/mL suspension was prepared, and 0.1 mL each of the resulting cell suspension was subcutaneously transplanted to a nude mouse at the side of its body. Ten days after the transplantation, E7820 and cetuximab (Erbitux® purchased from Merck) were administered alone or in combination. E7820 was orally administered at 50 mg/kg twice a day for 2 weeks while cetuximab was intraperitoneally administered at 100 mg/kg twice a week for 2 weeks.
# (§2) The major and minor axes of tumors were measured with Digimatic caliper (Mitsutoyo), and tumor volumes and relative tumor volumes were calculated according to the following formulae.
# Tumor Volume TV=Major axis of tumor(mm)×(Minor axis of tumor)^2(mm^2)/2
# (§3) Relative Tumor Volume RTV=Tumor volume on measurement day/Tumor volume on the first administration day
# [2] = tested on: human renal cancer cell line (ACHN); assay: E7820 and cetuximab in subcutaneous transplant model of ACHN; type: in vivo; details: ACHN s.c. in nude mouse; E7820 oral 50 mg/kg twice a day, cetuximab i.p. 100 mg/kg twice a week, 2 weeks; Day 1 = first administration
# Experimental: as §1, with “renal” for “colon”, “ACHN” for “WiDr”, “1×10^8” for “5×10^7”, “Eight” for “Ten”, “cetuximab” for “cetuximab (Erbitux® purchased from Merck)”
# as §2
# Tumor Volume TV=Major axis of tumor(mm)×(Minor axis of tumor)^2 (mm^2)/2
# as §3
substance,measurement,setting,value
"Cetuximab: anti-EGFR antibody, Erbitux purchased from Merck",Relative tumor volume on Day 15 Average ± standard deviation,[1],3.2 ± 0.4
same,Relative tumor volume on Day 15 Average ± standard deviation,[2],1.4 ± 0.1
